Source: article PMC8958505, “Discovery of Potential Neuroprotective Agents against Paclitaxel-Induced Peripheral Neuropathy” (Journal of Medicinal Chemistry, 2022)
Counter-ions that a name gives are not always drawn.

Key:
[1] = system: GABAA, Flunitrazepam, Central; test: LeadProfilingScreen: GABAA, Flunitrazepam, Central; type: binding, rat; conditions: 10 μM
Neuropeptide Y Y2 = Neuropeptide Y Y2 (Homo sapiens, UniProt P49146); test: LeadProfilingScreen: Neuropeptide Y Y2; type: binding
[2] = molecular target: Leukotriene, Cysteinyl CysLT1 (Homo sapiens, UniProt Q9Y271); test: LeadProfilingScreen: Leukotriene, Cysteinyl CysLT1; type: binding
Glutamate, NMDA, Glycine = Glutamate, NMDA, Glycine (Rattus norvegicus, UniProt P35439); test: LeadProfilingScreen: Glutamate, NMDA, Glycine; type: binding
Phorbol Ester = test: LeadProfilingScreen: Phorbol Ester; type: binding, mouse; conditions: 10 μM
Histamine H3 = Histamine H3 (Homo sapiens, UniProt Q9Y5N1); test: LeadProfilingScreen: Histamine H3; type: binding
Opiate µ (OP3, MOP) = Opiate µ (OP3, MOP) (Homo sapiens, UniProt P35372); test: LeadProfilingScreen: Opiate µ (OP3, MOP); type: binding
CYP 2C19 = molecular target: T1, CYP 2C19 (Homo sapiens, UniProt P33261); test: Cytochrome P450 testing, CYP 2C19; type: in vitro ADME; conditions: mephenytoin 4-hydroxylation; read-out: Concentration of inhibition (IC50), CYP 2C19
T1 construct: host or cells: baculovirus-infected insect cells (supersomes)
Text: Cytochrome P450 testing of CN016
The effects of CN016 on the activity of six specific human liver cytochrome P450 isozymes (CYP 1A2, 2C9, 2C19, 2D6, 2E1, 3A4) expressed in baculovirus-infected insect cell supersomes were studied. The reactions used to measure the activity of these enzymes were phenacetin O-deethylation (1A2), diclofenac 4-hydroxylation (2C9), mephenytoin 4-hydroxylation (2C19), dextromethorphan O-demethylation (2D6), chlorzoxazone 6-hydroxylation (2E1) and testosterone 6-hydroxylation (3A4).
Furafylline, sulfaphenazole, tranylcypromine, quinidine, diethyldithiocarbamate and azamulin were used as reference inhibitors of these enzymes. Incubation mixtures containing no CN016 or reference inhibitors were used as controls. The tested result […]
Table S4. Result of Cytochrome P450 testing of CN016

[3] = molecular target: Epidermal Growth Factor (EGF) (Homo sapiens, UniProt P00533); test: LeadProfilingScreen: Epidermal Growth Factor (EGF); type: binding
Transporter, GABA = Transporter, GABA (Rattus norvegicus, UniProt P23978); test: LeadProfilingScreen: Transporter, GABA; type: binding
Bradykinin B1 = Bradykinin B1 (Homo sapiens, UniProt P46663); test: LeadProfilingScreen: Bradykinin B1; type: binding
[4] = molecular target: Nicotinic Acetylcholine α3β4 (Homo sapiens, UniProt P30926+P32297); test: LeadProfilingScreen: Nicotinic Acetylcholine α3β4; type: binding
Thyroid Hormone = test: LeadProfilingScreen: Thyroid Hormone; type: binding, rat; conditions: 10 μM
Potassium Channel [KATP] = Potassium Channel [KATP] (Cricetus cricetus, UniProt Q09427); test: LeadProfilingScreen: Potassium Channel [KATP]; type: binding, hamster; conditions: read-out: Inhibition (%), Potassium Channel [KATP]
Text: LeadProfilingScreen (Total # of Assays: 67)
To evaluate, in LeadProfilingScreen, the activity of test compound CN168 (Panlabs # 1251879). […]
Summary of Significant Results
Biochemical assay results are presented as the percent inhibition of specific binding or activity throughout the report.
All other results are expressed in terms of that assay's quantitation method.
• For primary assays, only the lowest concentration with a significant response judged by the assays' criteria, is […]
• Where applicable, either the secondary assay results with the lowest dose/concentration meeting the significance […]
• Unless otherwise requested, primary screening in duplicate with quantitative data (e.g., IC50 ± SEM, Ki ± SEM and nH) are shown where applicable for individual requested assays. In screening packages, primary screening in duplicate with semi-quantitative data (e.g., estimated IC50, Ki and nH) are shown where applicable (concentration range of 4 log units); available secondary functional assays are carried out ([…]) and MEC or MIC determined only if active in primary assays >50% at 1 log unit below initial test concentration. […]

C57BL/6 mice = test: Rotarod performance test (motor coordination); type: in vivo, mouse; conditions: pretreated CN016 + paclitaxel
Protocol: Three behavioral models of paclitaxel-induced neuropathy were used to verify the neuroprotective effect of CN016. Namely, thermal and mechanical nociceptive reactions described below were evaluated by tail immersion and von Frey filament tests, respectively, and motor coordination was assessed with the rotarod performance test (Supporting Information, Figure S1A,B). To mimic the clinical therapeutic regimen, CN016 (5, 10 and 20 mg/kg) was administrated to 7-week-old female C57BL/6 mice by intraperitoneal injection (IP) 1 h prior to each injection of paclitaxel (4.5 mg/kg) on four alternate days (days 1, 3, 5, and 7). Each test’s basal level was recorded before treatment, and additional sessions of behavior tests were performed weekly for five weeks (Figure 4A).
The baseline of every neurological behavior test was measured in 6-week-old C57BL/6J female mice prior to treatment. […] Mechanical hyperalgesia was evaluated by using von Frey filament (#2390, IITC Inc., USA), thermal sensitivity was determined by the tail immersion assay (water temperature: 48–49 °C), and motor coordination was assessed by rotarod (#7750, Ugo Basile Biological Research Apparatus, Italy). After the first drug implantation, the body weight was recorded every 6 days throughout the entire experiment.

[5] = system: macrophages and microglia in DRG tissues; test: Immunofluorescence of macrophages and microglia in DRG tissues; type: in vivo, mouse; conditions: day 7
Protocol: DRG tissues were isolated on day 7 after first paclitaxel injection. The tissues were fixed in 4% paraformaldehyde at 4 °C overnight and subsequently placed in 30% sucrose for sample dehydration. During the frozen section procedure, the tissues were embedded in OCT (EMS; #14120) and sectioned into 20 μm thick slices. The DRG tissue sections were permeabilized with 0.1% Triton X-100 in PBS for 1 h and then blocked with CAS-Block solution (#008120; Thermo Fisher, USA) at room temperature for another 1 h. DRG tissue sections were stained with primary antibody against CD68 (1:100 dilution; Novus), NOS2 (1:100 dilution; Santa Cruz), Arginase-1 (1:100 dilution; Santa Cruz), and Iba-1 (1:100 dilution; Santa Cruz) at 4 °C overnight. Afterward, the samples were washed with PBS and stained with secondary antibodies (Alexa-488, 594, 1:200 dilution; Invitrogen) and Hoechst 33342 (4 μg/mL; Invitrogen) at room temperature for 1 h. A 60× objective by an Olympus FV3000 confocal microscope was used to acquire immunofluorescence images.

Endothelin ETA = Endothelin ETA (Homo sapiens, UniProt P25101); test: LeadProfilingScreen: Endothelin ETA; type: binding
Muscarinic M3 = Muscarinic M3 (Homo sapiens, UniProt P20309); test: LeadProfilingScreen: Muscarinic M3; type: binding

With `O=P(O)(O)CCN1CCC(Nc2cc(N3CCOCC3)nc(NCc3cn(CCCO)nn3)n2)CC1` [CN016, {2-[4-(2-{[1-(3-Hydroxy-propyl)-1H-[1,2,3]triazol-4-ylmethyl]-amino}-6-morpholin-4-yl-pyrimidin-4-ylamino)-piperidin-1-yl]-ethyl}-phosphonic Acid Hydrobromide Salt] the “Inhibition (%), GABAA, Flunitrazepam, Central” value [1] was -5%, the inhibition at 10 µM (Neuropeptide Y Y2) was 10% and the inhibition at 10 µM [2] was -8%. For the same molecule, the inhibition at 10 µM (Glutamate, NMDA, Glycine) was -5%, the “Inhibition (%), Phorbol Ester” value (Phorbol Ester) was -3% and the inhibition at 10 µM (Histamine H3) was 2%. For the same molecule, the inhibition at 10 µM (Opiate µ (OP3, MOP)) was 1%, the IC50 (CYP 2C19) was over 100 µM and the inhibition at 10 µM [3] was -1%. The inhibition at 10 µM (Transporter, GABA) was 2%, the inhibition at 10 µM (Bradykinin B1) was -10% and the inhibition at 10 µM [4] was 7%. The “Inhibition (%), Thyroid Hormone” value (Thyroid Hormone) was 7%, the inhibition at 10 µM (Potassium Channel [KATP]) was -1% and the “motor coordination (rotarod test)” value (C57BL/6 mice) was “neither paclitaxel treatment nor pretreated CN016 affected motor coordination”. The “infiltration of M1 and M2 macrophages in DRG tissues” value ([5]; CN016 10 or 20 mg/kg before paclitaxel) was “significantly diminished”, the “paclitaxel-induced M1 and M2 macrophages recruitment” value ([5]; CN016 low dosage) was “failed to inhibit” and the “paclitaxel-induced activation of M1 microglia in DRG neurons” value [5] was “dramatically reduce”. For the same molecule, the inhibition at 10 µM (Endothelin ETA) was 15% and the inhibition at 10 µM (Muscarinic M3) was 0%.
